The test system of this series is RPE cells. To be noted: high concentrations (IC50 concentrations), t-BHP. As to the method:
The cell culturing comprises the following steps. • 1. RPE cell clones were taken out from anti-frozen tubes in liquid nitrogen and quickly moved to a sterile hood after thawed in 37° C. water bath for 1 minute. RPE cell clones were taken out and placed in 10 cm dishes having 10 mL DMEM (Dulbecco's Modified Eagle Medium) therein. 10% inactivated fetal bovine serum (FBS), 2 mM L-glutamine, 100 U/mL penicillin, and 100 µg/mL streptomycin were added into the DMEM. • 2. The dishes were placed in a 37° C. incubator and cultured in conditions of a mixture gas of 95% air and 5% CO2, as well as 70% humidity. The old mediums were replaced by fresh mediums every 3 days. Serum-free DMEM was used instead of the mediums before performing experiments. • 3. When cells proliferated to nearly saturation, the numbers of cells were counted by a cell counter. […] Since RPE cells are attachment type cells, the medium containing the cells was transferred into 15 mL centrifugation tubes and then centrifuged at 72 g for 5 mines at room temperature when the medium was replaced. […]
Before experiment, the medium was replaced by serum-free medium. Fixed quantity of RPE cells (2×10^5 cells/mL) were respectively placed in 96 wells of a plate. […] After completely dissolving the residual cells, the enzyme immunoassay analyzer was used to detect the absorbance of each well. […]

On to echinacoside [Embodiment 2], for which the “cytotoxicity response at high concentration” value is listed as “reasonable cytotoxicity responses were observed”.

Values taken from US10967029B2, “Method of using Cistanche tubulosa extract to prevent, slow down, or treat an eye disease caused by oxidative stress” (Sinphar Pharmaceutical Co., Ltd., priority 2014, dated 2021).
